Data on one substance can be found in patent US11629193B2, “EGFR binding molecules” (F-STAR BETA LIMITED, priority 2016, dated 2023).

The subject of this test is LXFA 677 PDX tumours. In words: In vivo efficacy in patient-derived lung adenocarcinoma xenograft model LXFA 677. Also on record: species or system mice. Conditions: seven doses intravenously over two weeks. On the technique in general: A xenograft is tissue or cells of one species grown in another, often human tumour cells in immunodeficient mice.

“Also recorded” adds a separate entry of the source.

Take cetuximab [reference compound]: the tumour remission entry is listed as “complete tumour remission in all treated mice; also recorded: complete tumour regression” (Example 10, 20 mg/kg) and “complete tumour regression” (Example 21, 20 mg/kg).
